Ab-14 light chain CDR variants: yeast mating affinities

All variants were tested on one target, the spike HR2 peptide PDVDLGDISGINAS (SARS-CoV-2).

The variants keep the heavy chain, the linker and the frameworks of Ab-14 (scFv order VH, the linker GGGGSGGGGSGGGGS, VL).
VH: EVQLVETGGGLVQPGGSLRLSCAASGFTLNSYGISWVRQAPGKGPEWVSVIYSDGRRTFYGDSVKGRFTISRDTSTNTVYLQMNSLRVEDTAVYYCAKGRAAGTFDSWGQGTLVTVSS
VL: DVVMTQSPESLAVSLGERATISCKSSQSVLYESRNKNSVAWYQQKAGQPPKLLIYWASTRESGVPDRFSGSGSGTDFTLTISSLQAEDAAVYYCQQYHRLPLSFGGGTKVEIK

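Phage display of a naive human antibody library on the peptide gave the parent. These sequences belong to a second round, designed from the earlier measurements on random variants of the parent. Several design methods are mixed in this list. The scFvs were displayed on barcoded MATa yeast, the peptide on MATalpha yeast. Binding brings cells together so that they mate, and sequencing counts the barcode pairs among the diploids. Scores were corrected for input abundance and mapped to Kd with protein pairs of known affinity run in the same pool. Mating was done six times.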

Changes read parent residue, position, new residue, counted from the first residue of the VL shown. Variants here have at most six changes. Each Kd is an estimate from the mating assay, the geometric mean of the replicates in which the pair was seen; lower is stronger. "no signal" means that the variant was in the library but no mating with the target was seen in any replicate; the authors take this as a sign of poor binding, and no number exists. The authors' rule: three or more of the six replicates give a measured affinity, fewer mean a poor binder.

* S25F S33L N35T W56N = 910 pM (6 of 6 replicates)
* Q27I V29Y E32G N35M W56E = 1.3 nM (6 of 6 replicates)
* S25L S26M V29T K36P = no signal (0 of 6 replicates)
* V29Q S62Q = 33 nM (6 of 6 replicates)
* S25R Y31T R34E = no signal (0 of 6 replicates)
* S25L E32G S33D W56H E61C S103Y = 1.5 nM (6 of 6 replicates)
* S25A V29W S33D N35V W56G = 1.8 nM (6 of 6 replicates)
* V29K Y31R N35Y Y97G = no signal (0 of 6 replicates)
* K24H S25L V29Q W56N E61C = 400 pM (6 of 6 replicates)
* S25L V29M S38N W56H = 320 pM (6 of 6 replicates)
* V29T A57G H98R = no signal (0 of 6 replicates)
* S25L V29E W56N T59Q S62D = 2.1 nM (6 of 6 replicates)
* S26T R34L R60K = 420 nM (2 of 6 replicates)
* S25L S38N W56N E61L = 420 pM (6 of 6 replicates)
* Y31G S33D S38N E61V = 4.0 nM (6 of 6 replicates)
* L100A = no signal (0 of 6 replicates)
* Y31R R34S W56Y = 24 nM (6 of 6 replicates)
* S25L S26Q L30D W56N E61M = 750 pM (6 of 6 replicates)
* K24L Q27I V29Y R34P W56E S62W = 15 nM (6 of 6 replicates)
* V29Q = 430 nM (5 of 6 replicates)
* S25L N35M S38A W56N T59Q = 270 pM (6 of 6 replicates)
* Q27P V29D W56E S62Q = 1.5 nM (6 of 6 replicates)
* S25A S38A V39I W56A = 75 nM (4 of 6 replicates)
* Q27Y L30A Y97I = 370 nM (3 of 6 replicates)
* S25I V29G S62Q = 2.2 nM (6 of 6 replicates)
* Q95A H98I = no signal (0 of 6 replicates)
* Y31L T59N Q95Y = no signal (0 of 6 replicates)
* S26W Q27W R34N W56H S62D = 28 nM (6 of 6 replicates)
* Y31H N35E V39I Q95S = 150 nM (1 of 6 replicates)
* S25F S28W L30E N35T W56N = 2.2 nM (6 of 6 replicates)
* E32D W56T = 1.5 nM (6 of 6 replicates)
* V29D W56G Q96N = 3.1 nM (6 of 6 replicates)
* S25Q Y31G S33Q W56D A57I = 1.8 nM (6 of 6 replicates)
* S25Y R34L W56N S58R = 1.6 nM (6 of 6 replicates)
* S25L L30W W56S = 1.0 nM (6 of 6 replicates)
* S25Q S33W R34G W56D = 940 pM (6 of 6 replicates)
* K24F V29W W56G = 1.7 nM (6 of 6 replicates)
* A57S S103R = 47 nM (1 of 6 replicates)
* S25L K36F W56D = 700 pM (6 of 6 replicates)
* L30E K36C A57D L100N L102G = no signal (0 of 6 replicates)
* Q27I V29Y E32S R34P N35M W56E = 130 nM (6 of 6 replicates)
* S25V K36E = 970 pM (1 of 6 replicates)
* S25L Q27P L30M E32W S33M W56N = 720 pM (6 of 6 replicates)
* W56D S103F = 3.1 nM (6 of 6 replicates)

The 2 strongest on average among those seen in every replicate, once more:

- S25L N35M S38A W56N T59Q = 270 pM (6 of 6 replicates)
- S25L V29M S38N W56H = 320 pM (6 of 6 replicates)

The range of this assay differs from that of the first round, and the authors advise against merging the two. Nonspecific signal, from three strains lacking the peptide, appeared in 4% of pairings of all light chain designs, centred on 430 nM (5% of these signals below 38 nM); values are not corrected for it.

The measurements come from Li et al. 2023 (doi:10.1038/s41467-023-39022-2) through the FLAb antibody collection.